Experimental data from patent publication US11352322B2, “Cyclopropyl-amide compounds as dual LSD1/HDAC inhibitors” (Jubilant Epicore LLC, priority 2016, dated 2022).
Structures can show the parent of a compound that is named as a salt.

test system: MM1S; experiment: Anticancer activity: Alamar Blue assay, MM1S; format: cell-based; details: Homo sapiens, MM1.S, read-out: MM1S EC50

| SMILES | EC50 [µM] |
| --- | --- |
| O=C(/C=C/c1ccc(CNC2CC2c2ccc(F)cc2)cc1)NO (stereo not drawn) [Example 2, (E)-3-(4-{[2-(4-Fluoro-phenyl)-cyclopropylamino]-methyl}-phenyl)-N-hydroxy-acrylamide TFA Salt] | 0.023 |
| Nc1ccccc1NC(=O)/C=C/c1ccc(CNC2CC2c2ccc(F)cc2)cc1 (stereo not drawn) [Example 120] | 0.361 |
| Nc1ccccc1NC(=O)c1ccc(CCCN2CC(CNC3CC3c3ccc(F)cc3)C2)cc1 (stereo not drawn) [Example 126, N-(2-aminophenyl)-4-(3-(3-(((2-(4-fluorophenyl)cyclopropyl)amino)methyl)azetidin-1-yl)propyl)benzamide TFA Salt] | 0.012 |
